According to PubChem BioAssay (NCI):
The entries are a selection whose mix differs from that of the whole data set. Some salts and complexes are drawn in separate pieces, as the source files them; their charges need not balance. Calls of active or inactive are those of the source. Rule as the data show it: active = growth inhibition above about 70%; inactive = the rest.

Legend:
[1] = NCI Yeast Anticancer Drug Screen. Data for the rad50 strain (AID 155);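 also: 0% = growth of vehicle-only cultures of the same strain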; settings: S. cerevisiae rad50 strain growth inhibition; at 50.0 µM; active compounds read high
[2] = NCI Yeast Anticancer Drug Screen. Data for the mec2-1 strain (AID 157); settings: S. cerevisiae mec2-1 strain, at 50.0 µM, active compounds read high
[3] = NCI Yeast Anticancer Drug Screen. Data for the sgs1 mgt1 strain (AID 161);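 also: 0% = growth of cultures given vehicle only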; settings: S. cerevisiae sgs1 mgt1 strain, at 50.0 µM, active compounds read high
[4] = NCI Yeast Anticancer Drug Screen. Data for the cln2 rad14 strain (AID 165);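 also: 0% = growth equal to vehicle treated cultures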; settings: S. cerevisiae cln2 rad14 strain, at 50.0 µM, active compounds read high
[5] = NCI Yeast Anticancer Drug Screen. Data for the bub3 strain (AID 167); settings: S. cerevisiae bub3 mutant strain, at 50.0 µM, active compounds read high
[6] = NCI Yeast Anticancer Drug Screen. Data for the mlh1 rad18 strain (AID 175); settings: S. cerevisiae mlh1 rad18 strain growth inhibition; at 50.0 µM; active compounds read high

Measured: growth inhibition

COc1nccc2ccccc12.O=[N+]([O-])c1cc([N+](=O)[O-])c(O)c([N+](=O)[O-])c1
inactive: [1] 61.3% | [2] 21.4% | [3] 45.5% | [4] 10.8% | [5] 7.4% | [6] 38.3%

CCCCCC(C)NCCO.O=[N+]([O-])c1cc([N+](=O)[O-])c(O)c([N+](=O)[O-])c1
inactive: [1] 35% | [2] -3.8% | [3] 23.8% | [4] -29.9% | [5] 2.45% | [6] 6.85%

CCN(CC)CCOC(=O)C(O)(c1ccccc1)c1cc(C)cc(C)c1 (stereo unspecified)
inactive: [1] -2.9% | [2] 8.5% | [3] -5.8% | [4] -14.2% | [5] 3.75% | [6] 1.15%

C1CN1P1(N2CC2)=NP(N2CC2)(N2CC2)=NP(N2CC2)(N2CC2)=N1.O=[N+]([O-])c1cc([N+](=O)[O-])c(O)c([N+](=O)[O-])c1
inactive: [1] -10.1% | [2] 15.4% | [3] -4.25% | [4] 46.2% | [5] 12.6% | [6] -9.4%

COC(=O)CC1CCC(C(=O)OC)N1C.O=[N+]([O-])c1cc([N+](=O)[O-])c(O)c([N+](=O)[O-])c1
inactive: [1] 27.9% | [2] 8.75% | [3] 31.4% | [4] 18.7% | [5] 1.6% | [6] 19.9%

CCOP(=O)(O)CC.[Eu]
inactive: [1] -2.4% | [2] -0.15% | [3] -3.45% | [4] -18.9% | [5] -17.6% | [6] 8.1%

O=[N+]([O-])c1cn(F)c([N+](=O)[O-])n1
inactive: [1] 0.4% | [2] 2.45% | [3] 21.7% | [4] 8.25% | [5] 12.3% | [6] -8%

NCc1ccccc1.O=[N+]([O-])c1cc([N+](=O)[O-])c(O)c([N+](=O)[O-])c1
inactive: [1] -2.95% | [2] -13.6% | [3] -3.2% | [4] -54.7% | [5] 4.5% | [6] -6.7%

CCC(C)OC(=O)N(CCCl)CCCl (stereo unspecified)
inactive: [1] 12.2% | [2] 12.4% | [3] 0.8% | [4] 15.1% | [5] 8.6% | [6] 7.65%

CCN(CC)CCN1CCN=C1Cc1ccccc1.O=[N+]([O-])c1cc([N+](=O)[O-])c(O)c([N+](=O)[O-])c1
inactive: [1] 17% | [2] 1.7% | [3] 7.5% | [4] -2.9% | [5] 2.5% | [6] 22.6%

Cc1ccccn1.O=[N+]([O-])c1cc([N+](=O)[O-])c(O)c([N+](=O)[O-])c1
inactive: [1] -0.9% | [2] 36.2% | [3] 5.55% | [4] -8.65% | [5] 8.6% | [6] -6.7%

N/C(=N\[N+](=O)[O-])N(N)CCN(N)/C(N)=N/[N+](=O)[O-]
inactive: [1] 6.75% | [2] 12.7% | [3] 5.7% | [4] 9.7% | [5] 11.7% | [6] 32.3%

O=[N+]([O-])c1cc([N+](=O)[O-])c(O)c([N+](=O)[O-])c1.c1cncc(N=Nc2cccnc2)c1
inactive: [1] 9.85% | [2] 19.4% | [3] 40.9% | [4] 38.3% | [5] 18.6% | [6] 35%

CCN(CC)CCOC(=O)C(O)(c1ccccc1)c1ccc(C)cc1 (stereo unspecified)
inactive: [1] 0.15% | [2] 4.9% | [3] -5.7% | [4] -17% | [5] -0.85% | [6] 4.55%

O=C(NCCC(F)([N+](=O)[O-])[N+](=O)[O-])NCCC(F)([N+](=O)[O-])[N+](=O)[O-]
active: [3] 73.9% | [6] 73.8%
inactive: [1] 49.5% | [2] 28.1% | [4] 43.1% | [5] 42.1%

CCCCCc1ccccn1.O=[N+]([O-])c1cc([N+](=O)[O-])c(O)c([N+](=O)[O-])c1
inactive: [1] -0.2% | [2] 0.8% | [3] -12.4% | [4] -10.4% | [5] -2.25% | [6] -13.9%

CN(C)[P+](C)(N(C)C)N(C)C
inactive: [1] 17.3% | [2] 16.4% | [3] 37.5% | [4] 19.9% | [5] 16.2% | [6] 32.2%

CN(C)c1ccc(N=O)cc1.[C-]#N.[C-]#N.[C-]#N.[C-]#N.[C-]#N.[Fe+6]
inactive: [1] 20% | [2] 8.5% | [3] 32.2% | [4] 36% | [5] 44.9% | [6] 21.6%

O=[N+]([O-])C(CO)(CO)[N+](=O)[O-]
inactive: [1] 25.5% | [2] -10.4% | [3] 28.9% | [4] -29.8% | [5] -7.2% | [6] 20.4%

O=[N+]([O-])c1cc([N+](=O)[O-])c(O)c([N+](=O)[O-])c1.OCCc1ccccn1
inactive: [1] 16.8% | [2] 7.5% | [3] 3.1% | [4] 2.85% | [5] 17.9% | [6] 3.95%

CCCC(CCC)CN(C)C.O=[N+]([O-])c1cc([N+](=O)[O-])c(O)c([N+](=O)[O-])c1
inactive: [1] 34.1% | [2] 17.9% | [3] 37.7% | [4] 10.2% | [5] 2% | [6] 21.9%

O=P(Cl)(N1CCCC1)N1CCCC1
inactive: [1] 8.8% | [2] -12.7% | [3] -4.35% | [4] -33.4% | [5] -1.35% | [6] -4.05%

CC(C)OP(C)(=O)O.[Y]
inactive: [1] 0.6% | [2] -5.65% | [3] -1% | [4] -12.1% | [5] 8.3% | [6] -0.65%

CCN(CC)CCCN.O=[N+]([O-])c1cc([N+](=O)[O-])c(O)c([N+](=O)[O-])c1
inactive: [1] 8.9% | [2] 27.2% | [3] 21.8% | [4] -3.2% | [5] 18.6% | [6] 14.6%

C1=CN2OC3CCCCC3C2=CO1.O=[N+]([O-])c1cc([N+](=O)[O-])c(O)c([N+](=O)[O-])c1
inactive: [1] -8.85% | [2] 8.3% | [3] -7.1% | [4] -16.9% | [5] 20.9% | [6] -3.4%

COc1ccc2c3c1OC1C4(OC)C=CC5(CC4C(C)=O)[C@@H](C2)N(C)CC[C@]315 (stereo partly specified)
inactive: [1] -2.45% | [2] -10.9% | [3] 3.75% | [4] 3.8% | [5] -22.2% | [6] -2%
